The source of these data is PubChem BioAssay AID778 (Sanford-Burnham Center for Chemical Genomics, 2007).

Amino acid sequences for entries named in this document (tags omitted).
UniProt P33261, whole entry: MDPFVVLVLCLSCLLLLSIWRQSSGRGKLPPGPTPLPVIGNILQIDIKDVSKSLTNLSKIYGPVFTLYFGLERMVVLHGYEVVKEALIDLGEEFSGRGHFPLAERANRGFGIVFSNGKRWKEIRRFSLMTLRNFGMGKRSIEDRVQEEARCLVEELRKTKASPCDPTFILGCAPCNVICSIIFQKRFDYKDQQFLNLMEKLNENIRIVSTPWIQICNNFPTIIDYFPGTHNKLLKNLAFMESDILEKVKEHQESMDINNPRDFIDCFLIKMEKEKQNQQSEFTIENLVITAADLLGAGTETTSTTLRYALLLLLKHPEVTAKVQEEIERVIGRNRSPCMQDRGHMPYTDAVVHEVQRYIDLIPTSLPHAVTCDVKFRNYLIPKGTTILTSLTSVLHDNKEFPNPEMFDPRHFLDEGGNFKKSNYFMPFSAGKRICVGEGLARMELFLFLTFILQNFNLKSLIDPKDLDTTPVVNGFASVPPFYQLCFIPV

The list shows a part of the results, in another mix than the full data. The source made the active and inactive calls.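 The calls were made as follows: active = CYP2C19 inhibition above a set limit at 5 µM in the primary screen (cut at about 50% in these data); inactive = the rest.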

For the assay, the target named is Cytochrome P450 2C19 (Homo sapiens) (UniProt P33261). Description: blockers of cytochrome P450 2C19 activity – biochemical, luminescence, ADME assay, primary screen (AID 778).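 Also: plate controls were negative control wells for no effect and 2.5 mM tranylcypromine positive control for full effect.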 Conditions: CYP2C19 Supersomes, luciferin-H EGE luminescence, 30 min; at 5 µM; active compounds read high.
As to `Fc1ccccc1NC1CCN(Cc2ccccc2)CC1`, the inhibition (in general, the change of the read-out against control, counted positive when it falls) is active: 85.5%.

Consider `CCOc1ncccc1C(=O)NCC1(N2CCOCC2)CCCCC1`, for which the inhibition was inactive: 48.1%.

Take `CCC(CO)(C(=O)OC1CN2CCC1CC2)c1ccccc1` (stereo not given): the inhibition was inactive: 2.6%.

For the compound `N/C(=N\O)c1c(N)no[n+]1[O-]`, the inhibition was inactive: -4.3%.

For `c1ccc(CN2CCC(Nc3ccccc3)CC2)cc1`, the inhibition was active: 87.2%.

On to `N#CC1(Nc2ccccc2)CCN(CCc2ccccc2)CC1`, for which the inhibition was inactive: 38.8%.

With `O=C(NCC1(N2CCOCC2)CCCCC1)c1cc(=O)[nH]c2ccccc12`, the inhibition was inactive: -14.5%.

As to `O=C(NCC1(N2CCOCC2)CCCCC1)c1cc2ccccc2o1`, the inhibition was inactive: 13.5%.

For `O=C(OC1CN2CCC1CC2)C1c2ccccc2Oc2ccccc21` (stereo not given), the inhibition was inactive: 8.7%.

As to `COc1ccc(NC2CCN(CCc3ccccc3)CC2)c(OC)c1`, the inhibition was inactive: -2.4%.
